Values of other authors as cited in publication PMC9054915 (Cancer Chemotherapy and Pharmacology, 2022).

Chains of the proteins cited; added tags and fusions are not shown.
UniProt P08684, whole entry: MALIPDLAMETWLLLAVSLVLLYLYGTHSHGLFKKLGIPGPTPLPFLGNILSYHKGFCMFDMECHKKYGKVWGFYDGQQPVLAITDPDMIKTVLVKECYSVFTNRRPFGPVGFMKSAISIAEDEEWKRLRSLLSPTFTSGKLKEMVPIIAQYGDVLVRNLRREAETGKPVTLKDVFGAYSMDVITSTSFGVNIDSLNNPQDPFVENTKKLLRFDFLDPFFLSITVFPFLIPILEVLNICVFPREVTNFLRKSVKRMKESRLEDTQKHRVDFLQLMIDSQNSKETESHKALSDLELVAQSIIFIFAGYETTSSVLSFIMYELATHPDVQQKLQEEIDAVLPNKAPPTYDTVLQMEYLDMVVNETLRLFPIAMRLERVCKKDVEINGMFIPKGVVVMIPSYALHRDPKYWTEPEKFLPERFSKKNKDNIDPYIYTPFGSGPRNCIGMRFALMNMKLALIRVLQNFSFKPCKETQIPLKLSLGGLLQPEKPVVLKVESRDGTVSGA

Key:
CYP3A4 [1] = biological target: T1, CYP3A4 (Homo sapiens, UniProt P08684); set-up: caused by the saturation of CYP3A4 in the gut and liver; from tissue; host or cells: gut and liver of patients (in vivo) and Simcyp virtual healthy volunteer population; details: classification of the CYP3A4 inducer used in the simulation; cited from earlier work
CYP3A4 [2] = biological target: T1, CYP3A4; set-up: caused by the saturation of CYP3A4 in the gut and liver; from tissue; host or cells: gut and liver of patients (in vivo) and Simcyp virtual healthy volunteer population; details: classification of the CYP3A4 inhibitor used in the simulation; cited from earlier work
CYP3A4 [3] = biological target: T1, CYP3A4; details: geometric mean ratio (90% CI), cited from earlier work

Row | Compound | Induction of CYP3A4 (CYP3A4 [1]) | Inhibition of CYP3A4 (CYP3A4 [2]) | AUC ratio Observation (CYP3A4 [3]; ipatasertib (100 mg single dose) AUC0–∞ with/without itraconazole 200 mg QD) | Cmax ratio Observation (CYP3A4 [3]; ipatasertib (100 mg single dose) Cmax with/without itraconazole 200 mg QD)
1 | O=C1Nc2ccc(Cl)cc2[C@@](C#CC2CC2)(C(F)(F)F)O1 [Efavirenz] | Moderate |  |  | 
2 | CCC(C)n1ncn(-c2ccc(N3CCN(c4ccc(OCC5COC(Cn6cncn6)(c6ccc(Cl)cc6Cl)O5)cc4)CC3)cc2)c1=O (stereo not shown) [Itraconazole, reference compound] |  | Strong | 5.45 | 2.26
